## Ab-14 light chain CDR variants: yeast mating affinities

The target is the same throughout: PDVDLGDISGINAS, from the HR2 region of SARS-CoV-2 spike.

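Phage display of a naive human antibody library on the peptide gave the parent. This is the validation round: designs drawn from the data on random variants, tested in the same kind of assay. Their group label is 14L_GP_Gen (GP: Gaussian process model; Gen: genetic algorithm; a sequence that several methods proposed may carry one label only). The scFvs were displayed on barcoded MATa yeast, the peptide on MATalpha yeast. Pairs that bind mate more often; barcode pairs of the diploids are counted by sequencing. Each replicate has its own calibration line, from reference interactions of the BCL2 family. Each pool was mated in six replicate cultures.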

Parent: Ab-14, a human scFv built as VH, three GGGGS repeats, VL. Only the CDRs of the light chain vary.
VH: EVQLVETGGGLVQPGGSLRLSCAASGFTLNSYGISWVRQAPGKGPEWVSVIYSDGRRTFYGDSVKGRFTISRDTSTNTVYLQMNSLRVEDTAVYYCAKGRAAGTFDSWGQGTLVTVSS
VL: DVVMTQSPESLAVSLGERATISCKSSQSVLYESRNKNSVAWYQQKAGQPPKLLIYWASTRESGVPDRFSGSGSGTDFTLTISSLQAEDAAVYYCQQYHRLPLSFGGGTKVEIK

Variants are written as CDR1, CDR2 and CDR3 of the light chain (limits as in the source). Parent: KSSQSVLYESRNKNSVA, WASTRES, QQYHRLPLS. Values are log10 of the apparent Kd in nM; lower means stronger binding. The mean shown is taken over the replicates in which the pair was detected. Three control strains display no target. For all light chain designs, 4% of the pairings with them gave a signal, with a median of 2.64 and one signal in twenty below 1.59, so weak values seen in few replicates may be background. Also given: how often the same scFv was detected with the empty control strains, with their mean in brackets. The parent sequence was in this pool as ten entries: three were never detected, three once, and four in most replicates, with averages from 0.34 to 2.37. The range of this assay differs from that of the first round, and the authors advise against merging the two. The authors' rule: three or more of the six replicates give a measured affinity, fewer mean a poor binder.

| CDR-L1 | CDR-L2 | CDR-L3 | log10 Kd (nM) by replicate | mean log10 Kd (nM) | control signals |
|---|---|---|---|---|---|
| KLSQSVLYESRNKNNVA | NASKRES | QQYHRLPLS | -0.22 -0.42 -0.54 -0.59 -0.54 -0.38 | -0.45 | 1/18 (1.95) |
| KLYQSWLYESRNKNSVA | NASTRMS | QQYHRLPLS | 0.17 -0.01 0.13 -0.04 0.10 0.22 | 0.09 | 0/18 |
| KVQQSHLYESRNKNSVA | DASTRES | QQYHRLPLS | -0.20 -0.27 -0.47 -0.54 -0.59 -0.31 | -0.40 | 0/18 |
| KLDQSELYESRNKNSVA | EASQRES | QQYHRLPLS | -0.18 -0.17 -0.34 -0.47 -0.21 -0.18 | -0.26 | 0/18 |
| KVEQSGLYESRNKNSVA | NASTRES | QQYHRLPLS | 0.11 0.16 0.07 -0.07 0.13 0.46 | 0.14 | 2/18 (3.15) |
| KVSQSVMYESRNKNSVA | EASTRES | QQYHRLPLS | 0.58 0.52 -0.10 -0.02 0.16 -0.13 | 0.17 | 0/18 |
| KLQQSTLYESRNKNSVA | NASTRLS | QQYHRLPLS | 0.04 -0.05 -0.21 -0.29 -0.26 -0.11 | -0.15 | 3/18 (2.84) |
| KLSQSWDYESRNKNSVA | NASTRES | QQYHRLPLS | -0.16 -0.11 -0.42 -0.46 -0.57 -0.38 | -0.35 | 2/18 (3.09) |
| KLSGSWLYESRNKNNVA | GASTRES | QQYHRLPLS | 0.01 -0.09 -0.41 -0.45 -0.44 -0.39 | -0.30 | 1/18 (1.77) |
| KLSQSFLYESRNKNSVA | DASTRES | QDYHRLPLS | -0.22 -0.13 -0.15 -0.37 -0.14 0.13 | -0.15 | 1/18 (2.18) |
| KLSQSVLYESRVKNSVA | GASTRES | QQYHRLPLS | 0.03 -0.01 0.06 -0.04 0.07 0.04 | 0.03 | 1/18 (2.86) |
| ALSQSVLYESRNKNSVA | NASTREQ | QQYHRLPLS | 0.37 0.08 -0.04 -0.18 0.06 0.19 | 0.08 | 0/18 |
| KLSQSVEYESRQKNSVA | NASQRES | QQYHRLPLS | -0.10 -0.22 -0.06 -0.25 -0.14 -0.26 | -0.17 | 1/18 (3.91) |
| KLSQSVLYEDRNKNSVA | NASTRFS | QQYHRLPLS | -0.15 -0.51 -0.45 -0.50 -0.41 -0.23 | -0.37 | 1/18 (2.74) |
| KLSQSVLYEQRNKNSVA | QASTRMS | QQYHRLPLS | 0.33 0.27 0.07 0.07 -0.17 0.09 | 0.11 | 0/18 |
| KLSQSMLYESRNKNSVA | HASTRCS | QQYHRLPLS | -0.15 0.26 -0.21 0.00 0.34 0.05 | 0.05 | 1/18 (2.32) |
| KLSQSVLYESRNKNSVA | NASTRES | QQYHRLPLF | 0.14 0.13 -0.14 -0.39 -0.24 0.15 | -0.06 | 0/18 |
| KLSQSVDYESRNKNSVA | NASQRES | QQYHRLPLS | 0.06 -0.31 -0.34 -0.46 -0.24 -0.32 | -0.27 | 3/18 (2.09) |
| KLSQSDLYESRNKNNVA | EASTRES | QQYHRLPLS | 0.16 0.14 -0.02 -0.10 0.04 0.10 | 0.05 | 1/18 (3.00) |
| KVSQSQLYESRNKNNVA | NASQRES | QQYHRLPLS | -0.14 -0.56 -0.47 -0.47 -0.41 -0.31 | -0.39 | 3/18 (3.45) |
| KLSQSVWYESRNKNSVA | EASTREQ | QQYHRLPLS | -0.19 -0.15 -0.15 -0.67 -0.58 -0.33 | -0.34 | 0/18 |
| KLEQSHLYESRNKNAVA | NASTRES | QQYHRLPLS | -0.10 -0.29 -0.28 -0.50 -0.30 -0.17 | -0.27 | 2/18 (3.17) |
| FLSQSVLYESRNKNSVA | DASTRES | QQYHRLPLS | 0.53 0.69 0.56 0.26 0.43 0.53 | 0.50 | 1/18 (2.29) |
| KIQQSVLYESRNKNSVA | GASTRES | QQYHRLPLS | 0.40 0.12 -0.36 -0.09 -0.14 0.28 | 0.03 | 0/18 |
| KLSQSVLYESRNKNNVA | GASQRES | QQYHRLPLS | -0.29 -0.40 -0.58 -0.49 -0.62 -0.48 | -0.48 | 2/18 (2.65) |
| KLSQSVLYEERNCNSVA | NASQRES | QQYHRLPLS | 0.41 0.36 0.27 0.27 0.21 0.39 | 0.32 | 2/18 (2.88) |
| KLQQSWLYESRNKNSVA | HASTRES | QQYHRLPLS | 0.20 0.04 -0.10 -0.10 0.08 0.31 | 0.07 | 1/18 (3.20) |
| KVSQSVPYEQRNKNSVA | EASTRES | QQYHRLPLS | -0.04 -0.26 -0.31 -0.49 -0.31 -0.18 | -0.27 | 1/18 (2.44) |
| KLPQSVLYESRNKNSVA | EGSTRES | QQYHRLPLS | 0.10 -0.18 -0.30 0.08 -0.13 0.25 | -0.03 | 0/18 |
| KLSQSVLYESRMKNSVA | EASTREQ | QQYHRLPLS | -0.37 -0.44 -0.65 -0.58 -0.56 -0.32 | -0.49 | 0/18 |
| KLSQSWLYESRNKNSVA | NASTRYS | QQYHRLPLS | 0.45 0.43 0.30 0.19 0.49 0.40 | 0.38 | 1/18 (2.23) |
| KLSQSCLYESRMKNSVA | NASTRES | QQYHRLPLS | 0.32 0.47 0.08 0.28 0.30 0.33 | 0.30 | 2/18 (2.81) |
| KFSQSELYESRNKNSVA | EASTRES | QQYHRLPLS | -0.04 -0.58 -0.40 -0.60 -0.55 -0.21 | -0.40 | 0/18 |
| KVSQSVLYESRNKMSVA | NASTRES | QQYHRLPLS | 0.04 0.06 0.02 -0.36 -0.28 0.08 | -0.07 | 0/18 |
| KLEQGWLYESRNKNSVA | NASQRES | QQYHRLPLS | -0.02 0.01 -0.12 -0.10 0.08 0.15 | 0.00 | 1/18 (2.78) |
| KVSQSWLYESRNKNSVA | NASTRES | QDYHRLPLS | 0.00 -0.30 -0.33 -0.39 -0.27 -0.09 | -0.23 | 2/18 (2.11) |
| KISQSVLYESRNKNAVA | NASTRES | QQYHRLPLS | -0.28 -0.36 -0.46 -0.62 -0.49 -0.31 | -0.42 | 1/18 (3.99) |
| KVSQSVLYEQRNKNSVA | EASTRCS | QQYHRLPLS | 0.11 -0.05 -0.04 -0.17 0.04 0.16 | 0.01 | 3/18 (3.51) |
| KLPQSFLYESRNKNSVA | NASTRLS | QQYHRLPLS | -0.03 -0.02 -0.13 -0.20 -0.24 0.10 | -0.09 | 1/18 (2.55) |
| KVSQSFLYESRNKNNVA | DASTRES | QQYHRLPLS | 0.30 0.02 0.01 0.01 -0.03 0.33 | 0.11 | 0/18 |
| KFSQSVLYEDRNKNNVA | NASQRES | QQYHRLPLS | 0.19 0.01 0.14 0.19 0.00 0.28 | 0.13 | 3/18 (2.67) |
| KLSQSVLYESRNKNSVA | EASHRES | QQYHRLPLS | 0.06 -0.24 -0.21 -0.24 -0.24 -0.13 | -0.17 | 2/18 (2.19) |
| KLPQSDLYESRNKNSVA | HASTRES | QQYHRLPLS | -0.07 -0.23 -0.26 -0.22 -0.26 -0.21 | -0.21 | 2/18 (2.92) |
| KLQQSVLYESRQKNSVA | NASTRMS | QQYHRLPLS | 0.31 0.24 0.15 0.41 -0.02 0.47 | 0.26 | 0/18 |
| KFPQSELYESRNKNSVA | NASTRES | QQYHRLPLS | -0.11 0.24 -0.25 -0.23 -0.03 0.15 | -0.04 | 0/18 |
| KLSQSKLYESRNKNNVA | DASTRES | QQYHRLPLS | -0.33 -0.41 -0.41 -0.62 -0.45 -0.33 | -0.43 | 1/18 (2.74) |

Picked from the list: the 7 lowest averages where every replicate gave a value.

| CDR-L1 | CDR-L2 | CDR-L3 | log10 Kd (nM) by replicate | mean log10 Kd (nM) | control signals |
|---|---|---|---|---|---|
| KLSQSVLYESRMKNSVA | EASTREQ | QQYHRLPLS | -0.37 -0.44 -0.65 -0.58 -0.56 -0.32 | -0.49 | 0/18 |
| KLSQSVLYESRNKNNVA | GASQRES | QQYHRLPLS | -0.29 -0.40 -0.58 -0.49 -0.62 -0.48 | -0.48 | 2/18 (2.65) |
| KLSQSVLYESRNKNNVA | NASKRES | QQYHRLPLS | -0.22 -0.42 -0.54 -0.59 -0.54 -0.38 | -0.45 | 1/18 (1.95) |
| KLSQSKLYESRNKNNVA | DASTRES | QQYHRLPLS | -0.33 -0.41 -0.41 -0.62 -0.45 -0.33 | -0.43 | 1/18 (2.74) |
| KISQSVLYESRNKNAVA | NASTRES | QQYHRLPLS | -0.28 -0.36 -0.46 -0.62 -0.49 -0.31 | -0.42 | 1/18 (3.99) |
| KVQQSHLYESRNKNSVA | DASTRES | QQYHRLPLS | -0.20 -0.27 -0.47 -0.54 -0.59 -0.31 | -0.40 | 0/18 |
| KFSQSELYESRNKNSVA | EASTRES | QQYHRLPLS | -0.04 -0.58 -0.40 -0.60 -0.55 -0.21 | -0.40 | 0/18 |

Source: Li et al. 2023 (doi:10.1038/s41467-023-39022-2), MIT Lincoln Laboratory and A-Alpha Bio; data file from the FLAb repository.